Test system: adrenergic receptors
Assay: Inhibition/reversal of tension effects of adrenalin, intravenous (products of Examples 11 to 13)
Type: in vivo
Conditions: adrenalin alone, animal itself as control
Procedure: the doses of CRL 40,150 from 0.5 to 4 mg/kg being administered successively.

For `CNCC(O)c1ccc(O)c(O)c1` (stereo not shown) [adrenalin], which “effect of adrenalin (hypertension)” value is on record?
Its value is 152%.

From patent US3959283A, “Amino-derivatives of 1,4-benzodioxan” (Laboratoire L. Lafon, priority 1974, dated 1976)
